The results in this text go back to ChEMBL document CHEMBL1212777, “Novel VIM metallo-beta-lactamase variant from clinical isolates of Enterobacteriaceae from Algeria” (2010).

The test system of data set [1] is CO/N=C(\C(=O)N[C@@H]1C(=O)N2C(C(=O)[O-])=C(C[N+]3(C)CCCC3)CS[C@H]12)c1csc(N)n1. Put plainly: (§1) Hydrolytic activity of beta-lactamase VIM-1 in Escherichia coli DH5alpha expressing pBCLL/39H by microacidimetric method.
In data set [2] the test system is C[C@@H](O)[C@H]1C(=O)N2C(C(=O)O)=C(SCCNC=N)C[C@H]12. Described as §1.
The test system of data set [3] is C[C@@H](O)[C@H]1C(=O)N2C(C(=O)O)=C(S[C@@H]3CN[C@H](C(=O)N(C)C)C3)[C@H](C)[C@H]12. The description is as §1.
Data set [4] relates to CO/N=C(\C(=O)N[C@@H]1C(=O)N2C(C(=O)[O-])=C(C[N+]3(C)CCCC3)CS[C@H]12)c1csc(N)n1. Put plainly: (§2) Ratio of Kcat to Km for beta-lactamase VIM-1 in Escherichia coli DH5alpha expressing pBCLL/39H by microacidimetric method.
The test system of data set [5] is C[C@@H](O)[C@H]1C(=O)N2C(C(=O)O)=C(SCCNC=N)C[C@H]12. The description is as §2.

As usually defined, the kcat is the number of substrate molecules converted per active site and unit of time at saturation. Broadly, the kcat/Km is the turnover number divided by the Michaelis constant. “BlaVIM-1 (Escherichia coli) (from UniProt Q8GDC1)”: the catalytic constant (kcat) is 549 s⁻¹ in data set [1], 2 s⁻¹ in data set [2] and 13 s⁻¹ in data set [3]. Also, the specificity constant (kcat/Km) stood at 3.8e+06 M⁻¹ s⁻¹ in data set [4] and 1.3e+06 M⁻¹ s⁻¹ in data set [5].
